Source: doi:10.1101/2022.10.27.513961v1 (bioRxiv, 2022)

Assays:
HT144 cells = experiment: Real-time cell analysis, xCELLigence impedance; assay type: cell-based
WM164 cells = experiment: Real-time cell analysis, xCELLigence impedance; assay type: cell-based

SMILES: CC(C)C[C@@H]1NC(=O)[C@H](CCCNC(=N)N)NC(=O)[C@H](CCCNC(=N)N)NC(=O)[C@@H]2CSSC[C@H](NC(=O)[C@H](Cc3ccc(O)cc3)NC(=O)[C@H]([C@@H](C)O)NC(=O)[C@H](C(C)C)NC(=O)[C@@H]3CSSC[C@H](NC1=O)C(=O)N[C@@H](Cc1ccc(O)cc1)C(=O)N[C@@H](CCCCN)C(=O)N[C@@H](CCC(N)=O)C(=O)N[C@@H](CCCNC(=N)N)C(=O)N3)C(=O)N[C@@H](CCCNC(=N)N)C(=O)NCC(=O)N[C@@H](CCCNC(=N)N)C(=O)NCC(=O)N2 [cGm, cyclic gomesin]
- reduction in impedance signal (HT144 cells; 4 µM, 24 h): ~50%
- time to drop in the impedance to ∼0 (HT144 cells; 8 µM): 2 to 3 h
- reduction in impedance signal (WM164 cells; 4 µM, 24 h): ~50%
- time to drop in the impedance to ∼0 (WM164 cells; 8 µM): 2 to 3 h
